We go through 1 compound from ChEMBL document CHEMBL4680104, “Structure-Based Optimization of Small-Molecule Inhibitors for the β-Catenin/B-Cell Lymphoma 9 Protein-Protein Interaction” (J Med Chem, 2018).

For the experiment, the species on record is Homo sapiens. Description: Selectivity index, ratio of Ki for inhibition of protein interaction between beta-catenin (unknown origin)/E-cadherin (unknown origin) to Ki for inhibition of protein interaction between beta-catenin (unknown origin)/BCL9 (unknown origin).

Turning to `Cl.Cl.O=C(Nc1ccc(O[C@H]2CCNC2)c(-c2ccc(F)cc2)c1)c1ccc(O[C@H]2CCNC2)c(-c2ccc(F)c(F)c2)c1`, the Ratio Ki amounted to 125.
